The data set is described as follows: Clearance in human after iv administration. Type of data set: ADME, organism-based. To be noted: in vivo.

As a reminder, the clearance is a measure of how efficiently the substance is removed, as volume per time. A higher clearance goes with a high capacity for elimination.

SMILES strings stand for the structures.

`O=C(c1ccccc1)c1ccc2n1CCC2C(=O)O` (stereo unspecified) [KETOROLAC] returned a clearance of 0.35 mL/min/kg.

The record behind these values is ChEMBL document CHEMBL1614629, “Extrapolation of human pharmacokinetic parameters from rat, dog, and monkey data: Molecular properties associated with extrapolative success or failure” (J Pharm Sci, 2005).
